{"source": "ChEMBL document CHEMBL1137037", "about": "“Pyrrolo[2,1-c][1,4]benzodiazepine-anthraquinone conjugates. Synthesis, DNA binding and cytotoxicity” (Bioorg Med Chem Lett, 2004)", "system": "Calf thymus DNA", "experiment": "Thermal denaturation of calf thymus DNA at 18 hr at 37 degree C", "assay_type": "nucleic-acid assay", "details": "Bos taurus", "in_short": "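Calf thymus DNA at 100 μM with ligand at 20 μM (1:5 [PBD]/[DNA] molar ratio), in 10 mM sodium phosphate plus 1 mM EDTA, pH 7.00 ± 0.01. Samples were incubated at 37 °C for 0 h or 18 h before thermal melting. The value is the induced ΔTm against DNA alone, whose Tm is the mean of 10 separate determinations.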", "data": [{"molecule": "COc1cc2c(cc1O)N=C[C@@H]1CCCN1C2=O", "values": [{"measurement": "ΔTm", "result": 0.7, "unit": "°C"}]}]}
